Assay results published in US6926913B2, “Composition containing molecular iodine” (dated 2005).

Test system: sulfur mustard (SM)-induced skin burns
Experiment: Protective effect of iodine against sulfur mustard (SM)-induced skin burns in haired guinea pig model
Conditions: 0.1 ml of 2% solution s.c. 20 min prior to SM

Compound: CCN(CC)CC(=O)Nc1c(C)cccc1C
- effect on the protective effect of iodine: no effect
